Source: ChEMBL document CHEMBL1287777 (Bioorg Med Chem Lett, 2010)

Experiments:
Carbonic anhydrase 1 = Carbonic anhydrase 1 (Homo sapiens, UniProt P00915); assay: Inhibition of full length human CA1 cytosolic isoform by stopped-flow CO2 hydration method
Carbonic anhydrase 2 = Carbonic anhydrase 2 (Homo sapiens, UniProt P00918)
Carbonic anhydrase 9 = Carbonic anhydrase 9 (Homo sapiens, UniProt Q16790); assay: Inhibition of human recombinant CA9 catalytic domain by stopped-flow CO2 hydration method

## O=c1ccc2ccc(O)cc2o1 [UMBELLIFERONE]
Carbonic anhydrase 1
  Ki: 58.4 µM
Carbonic anhydrase 2
  Ki: > 100 µM
Carbonic anhydrase 9
  Ki: 0.482 µM

## O=c1ccc2ccccc2o1 [COUMARIN]
Carbonic anhydrase 9
  Ki: > 0.1 µM

## CC(=O)c1cc2ccc(=O)oc2cc1O
Carbonic anhydrase 1
  Ki: > 100 µM
